Test results as given in patent US9708590B2, “Crystal structure of human α-N-acetylglucosaminidase” (Shire Human Genetic Therapies, Inc., priority 2010, dated 2017).

Assay: Solubility limit observed on concentrating the purified protein (precipitation/crystallization)
Details: concentrating Q column pool, 20 mM Tris pH=7.5, approximately 100 mM NaCl

B1: Naglu-kif: recombinant human α-N-acetylglucosaminidase expressed in HT1080 cells treated with kifunensine; high mannose glycans (SEQ ID NO: 3); R3 = research batch #3 (protein, listed as Homo sapiens)
chain: DEAREAAAVRALVARLLGPGPAADFSVSVERALAAKPGLDTYSLGGGGAARVRVRGSTGVAAAAGLHRYLRDFCGCHVAWSGSQLRLPRPLPAVPGELTEATPNRYRYYQNVCTQSYSFVWWDWARWEREIDWMALNGINLALAWSGQEAIWQRVYLALGLTQAEINEFFTGPAFLAWGRMGNLHTWDGPLPPSWHIKQLYLQHRVLDQMRSFGMTPVLPAFAGHVPEAVTRVFPQVNVTKMGSWGHFNCSYSCSFLLAPEDPIFPIIGSLFLRELIKEFGTDHIYGADTFNEMQPPSSEPSYLAAATTAVYEAMTAVDTEAVWLLQGWLFQHQPQFWGPAQIRAVLGAVPRGRLLVLDLFAESQPVYTRTASFQGQPFIWCMLHNFGGNHGLFGALEAVNGGPEAARLFPNSTMVGTGMAPEGISQNEVVYSLMAELGWRKDPVPDLAAWVTSFAARRYGVSHPDAGAAWRLLLRSVYNCSGEACRGHNRSPLVRRPSLQMNTSIWYNRSDVFEAWRLLLTSAPSLATSPAFRYDLLDLTRQAVQELVSLYYEEARSAYLSKELASLLRAGGVLAYELLPALDEVLASDSRFLLGSWLEQARAAAVSEAEADFYEQNSRYQLTLWGPEGNILDYANKQLAGLVANYYTPRWRLFLEALVDSVAQGIPFQQHQFDKNVFQLEQAFVLSKQRYPSQPRGDTVDLAKKIFLKYYPRWVAGSW
Listed as NAGLU-kif
  protein concentration at which precipitation appeared: over 1 mg/mL
Listed as Naglu kif
  protein concentration at which precipitation appeared: 2 mg/mL
